Rows were chosen to be rich in hits. Some 1.3% of all compounds tested hit in one or more screens of this group.
miR122 inh = miR-122 inhibition in Huh7 cells; 340,000 compounds, 0.3% hits; AID 602342; Huh7 miR-122 Renilla luciferase sensor, 48 h; neutral wells = 0, positive control = 100; activation (reporter increase), % at 12.5 µM;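 active = mean replicate activation score at least 90 and every replicate individually at or above 90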;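 also: higher luciferase means less miR-122 activity so hits act as miR-122 inhibitors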
F508del corr = CFTR F508del correction in bronchial cells; activity (quench increase), % at 7.58 µM; AID 720511; 350,000 compounds, 0.36% hits; CFBE cells, YFP halide quenching; stimulated with forskolin plus potentiator P3; % fluorescence drop versus neutral controls;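 active = mean added fluorescence quench of at least 8% versus neutral control, with both replicates also reaching 8%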;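 also: cells transiently co-express mutant CFTR-F508del with the halide-sensitive YFP; corrector assay measuring rescue of mutant channel to the surface after 24 h compound exposure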
PglD inh = blocks C. jejuni PglD acetyltransferase activity. inhibition, % at 12.5 µM. AID 602405. purified PglD enzyme, DTNB colorimetric CoA detection. 360,000 compounds, 0.098% hits; in the data active = inhibition above about 16%, passing the limit was not always enough
LGR2 inh = blocks bursicon-induced cAMP signaling via Drosophila LGR2; HEK293 LGR2, CRE-luciferase, bursicon-stimulated, 4 h; inhibition, % at 9.99 µM; 380,000 compounds, 0.35% hits; AID 720647;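 active = drop in luminescence signal, shown as inhibition above about 50% in the replicate tests, limit read from the data, passing the limit was not always enough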;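 also: agonist challenge used bursicon conditioned medium at about half maximal strength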
EWS-Fli inh = EWS/Fli transcriptional activity inhibition; A673 NR0B1-luciferase reporter, viability-normalised; inhibition, % at 12.6 µM; 350,000 compounds, 0.67% hits; AID 651661;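 active = mean inhibition of at least 50% after viability correction, with every replicate also passing that limit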;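 also: firefly luciferase signal divided by Alamar Blue viability fluorescence both relative to DMSO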
UUG fidelity = yeast start codon fidelity modulation; actives 0.13% (n = 350,000); activity score, % at 18.7 µM; S. cerevisiae UUG-firefly luciferase reporter, luminescence/redox ratio;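 active = replicate mean at a twofold rise or more, about +100% in these data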;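 note: firefly luciferase made from a UUG start codon reports start codon fidelity; reporter light over untreated wells divided by growth signal over untreated wells; some hits fall short of that in this replicate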
Active calls of the source: *; · = no result given; [ ] = dose if it differs, or a comment.

Preview:
| SMILES | miR122 inh | F508del corr | PglD inh | LGR2 inh | EWS-Fli inh | UUG fidelity |
| --- | --- | --- | --- | --- | --- | --- |
| COc1ccccc1C(C[N+](=O)[O-])c1c(N)n(C)c(=O)n(C)c1=O (configuration not stated) | 6 | 0 | 4 | 69* | 23 | -29 |
| C[C@H]1CN([C@@H](C)CO)S(=O)(=O)c2ccc(-c3cncnc3)cc2O[C@@H]1CN(C)C(=O)CC1CC1 | -1[16.7 µM] | 3 | 0 | 2 | -6 | -7 |
| Cc1ccc(-n2nnc(-c3nccs3)n2)cc1 | 100* | 3 | -1 | -12 | 82* | -81 |
| CC(C)C[C@H]1CN([C@@H](Cc2ccc(O)cc2)CN2CCC[C@H]2CN2C(=O)C(=O)NC[C@@H]2Cc2ccccc2)C(=O)C(=O)N1CC1CCCCC1 | · | 8.4* | · | 23 | 24 | · |
| CC(C)C[C@H]1CN([C@@H](Cc2ccc(O)cc2)CN2CCC[C@@H]2CN2C(=O)C(=O)NC[C@@H]2Cc2ccccc2)C(=O)C(=O)N1CC1CCCCCC1 | 4 | 2 | -3 | 1 | 2 | 22 |

The whole of this part, from the start:
| SMILES | miR122 inh | F508del corr | PglD inh | LGR2 inh | EWS-Fli inh | UUG fidelity |
| --- | --- | --- | --- | --- | --- | --- |
| COc1ccccc1C(C[N+](=O)[O-])c1c(N)n(C)c(=O)n(C)c1=O (configuration not stated) | 6 | 0 | 4 | 69* | 23 | -29 |
| C[C@H]1CN([C@@H](C)CO)S(=O)(=O)c2ccc(-c3cncnc3)cc2O[C@@H]1CN(C)C(=O)CC1CC1 | -1[16.7 µM] | 3 | 0 | 2 | -6 | -7 |
| Cc1ccc(-n2nnc(-c3nccs3)n2)cc1 | 100* | 3 | -1 | -12 | 82* | -81 |
| CC(C)C[C@H]1CN([C@@H](Cc2ccc(O)cc2)CN2CCC[C@H]2CN2C(=O)C(=O)NC[C@@H]2Cc2ccccc2)C(=O)C(=O)N1CC1CCCCC1 | · | 8.4* | · | 23 | 24 | · |
| CC(C)C[C@H]1CN([C@@H](Cc2ccc(O)cc2)CN2CCC[C@@H]2CN2C(=O)C(=O)NC[C@@H]2Cc2ccccc2)C(=O)C(=O)N1CC1CCCCCC1 | 4 | 2 | -3 | 1 | 2 | 22 |
| CC(C)C[C@H]1CN([C@@H](CC(C)C)CN2CCC[C@@H]2CN2C(=S)NC[C@@H]2Cc2ccc(O)cc2)C(=S)N1CCc1ccccc1 | 2 | 8.8* | -5 | 5 | 11 | -18 |
| COc1ccc(Cl)cc1NC(=O)CN(C)CC(=O)Nc1cc(OC)c(OC)c(OC)c1 | · | 13* | 1 | -13 | 62* | -8 |
| COc1ccc(Cl)cc1NC(=O)CN(C)CC(=O)Nc1ccc(Br)cc1 | · | 4 | · | 3 | -1 | · |
| COc1ccc(C2CC(c3cccc(Br)c3)=NN2c2ccc(S(N)(=O)=O)cc2)cc1 (configuration not stated) | 8 | 10* | 7 | 8 | 17 | -11 |
| CCC(C)c1ccc(NC(=S)NCc2cccs2)cc1 (configuration not stated) | 174* | · | 11 | -32 | · | -35 |
| C[C@H](CO)N1C[C@H](C)[C@@H](CN(C)CC2CC2)Oc2ccc(NC(=O)CCCCCC(=O)Nc3ccccc3N)cc2CC1=O | · | 1 | · | -8 | · | · |
| C[C@H](CO)N1C[C@H](C)[C@@H](CN(C)C(=O)Nc2ccc(C(F)(F)F)cc2)Oc2ccc(NC(=O)Cn3cnnn3)cc2CC1=O | 1[16.7 µM] | 0 | 18* | -7 | -7 | 86 |
| C[C@@H]1CN([C@H](C)CO)C(=O)Cc2cc(NC(=O)Cn3cnnn3)ccc2O[C@H]1CN(C)C(=O)Nc1ccc(C(F)(F)F)cc1 | 1[16.7 µM] | -1 | 8 | -15 | -5 | 9 |
| C[C@H]1CN([C@@H](C)CO)C(=O)Cc2cc(NC(=O)CCCCCC(=O)Nc3ccccc3N)ccc2O[C@H]1CN(C)CC1CCCCC1 | 6[16.7 µM] | -1 | 1 | -21 | 60* | 7 |
| C[C@@H]1CN([C@H](C)CO)C(=O)Cc2cc(NS(=O)(=O)c3ccc(Cl)cc3)ccc2O[C@@H]1CN(C)C(=O)Nc1ccc(C(F)(F)F)cc1 | 103*[16.7 µM] | -1 | 0 | 14 | 50 | -1 |
| COc1ccc(NC(=O)Nc2ccc3c(c2)CC(=O)N([C@@H](C)CO)C[C@@H](C)[C@@H](CN(C)C(=O)NC(C)C)O3)cc1 | 101*[16.7 µM] | 3 | 6 | 3 | 1 | 19 |
| C[C@@H]1CN([C@@H](C)CO)C(=O)Cc2cc(NC(=O)Nc3ccc(C(F)(F)F)cc3)ccc2O[C@@H]1CN(C)C(=O)NC1CCCCC1 | 7[16.7 µM] | 5 | 2 | 10 | 59* | -2 |
| C[C@@H]1CN([C@@H](C)CO)C(=O)Cc2cc(NC(=O)Nc3ccc(C(F)(F)F)cc3)ccc2O[C@H]1CN(C)CC1CCCCC1 | -31[16.7 µM] | -1 | 0 | 4 | 59* | -4 |
| C[C@H](CO)N1C[C@H](C)[C@@H](CN(C)C(=O)NC2CCCCC2)Oc2ccc(NC(=O)Nc3ccc(C(F)(F)F)cc3)cc2CC1=O | 7[16.7 µM] | 1 | 1 | -5 | 9 | -10 |
| Cc1ccc(C2SCCN2C(=O)c2ccc([N+](=O)[O-])cc2)cc1 (configuration not stated) | · | · | · | -2 | · | · |
| COc1ccc(NC(=O)C2CC(=O)N(c3ccccc3C)C2)c(OC)c1 (configuration not stated) | -2 | -3 | -4 | 1 | -3 | -11 |
| CCN(CC)Cc1c(O)ccc2c1O/C(=C\C=C\c1ccccc1)C2=O | 278* | -5 | -12 | 6 | 77* | 8 |
| CCCCOCCCNC(=O)CC(C)c1ccccc1 (configuration not stated) | -8 | · | -1 | 2 | · | -7 |
| COc1ccc(S(=O)(=O)Nc2cccc(-c3ccc4nncn4n3)c2)cc1F | · | · | · | -3 | 56* | · |
| CN(C)/C=N/C(=S)Nc1ccc(Cl)cc1Cl | · | -3 | · | · | -42 | · |
| O=S(=O)(NCc1cccnc1)c1ccc(Cl)c(Cl)c1Cl | 19 | · | 4 | · | · | -14 |
| O=S(=O)(NCc1cccnc1)c1ccc(Cl)c2ccccc12 | 175* | -1 | 8 | -6 | -2 | -19 |
| CC(NCc1ccc(-c2ccccc2)cc1)C(O)c1ccccc1 (configuration not stated) | 0 | · | 1 | 21 | 33 | -5 |
| COc1ccc(-c2ccc3c(c2)S(=O)(=O)c2cccc(C(=O)NCc4ccccc4Cl)c2C3=O)cc1OC | 1 | 2 | 5 | -18 | -2 | -17 |
| COc1ccc(-c2ccc3c(c2)S(=O)(=O)c2cccc(C(=O)NCCOc4ccccc4Cl)c2C3=O)cc1OC | -5 | 0 | -2 | 11 | 58* | -7 |
| CC(C)C[C@H](NC(=O)c1nc[nH]c1C(=O)N1CCN(C(=O)OC(C)(C)C)CC1)C(=O)OC(C)(C)C | · | 12* | 5 | 8 | -15 | -12 |
| CCOC(=O)CN1C(=O)C(C)(C)Oc2ccc(C(=O)Nc3ccccc3)cc21 | 159* | · | -3 | · | · | -1 |
| NC(N)=N/N=C/c1ccc(Cl)cc1Cl | · | 2 | · | -2 | 5 | · |
| NC(N)=N/N=C/c1ccc(Cl)c(Cl)c1 | -8 | -1 | -8 | 64* | 4 | -14 |
| NC(N)=N/N=C/c1ccc(OCc2ccccc2)c(OCc2ccccc2)c1 | · | -1 | -4 | 15 | 29 | -15 |
| NC(N)=N/N=C/c1ccc(OCc2ccccc2Cl)cc1 | -20 | -3 | 1 | 1 | 58* | -13 |
| CCN(CC)CCCn1c2c(c(SCC(=O)Nc3ccc(F)c(F)c3)nc1=O)CCC2 | -3 | 3 | -4 | -17 | -1 | -2 |
| CCN(CC)CCn1c2c(c(SCC(=O)Nc3ccc(F)c(F)c3)nc1=O)CCC2 | 2 | 9.2* | -2 | 11 | 2 | -7 |
| O=C(O)COc1ccccc1-c1nc(-c2ccccc2)c(-c2ccccc2)[nH]1 | -2 | 1 | 1 | -9 | 10 | 3 |
| O=C(O)c1ccccc1-c1nc(-c2ccccc2)c(-c2ccccc2)[nH]1 | · | 13* | · | 4 | 11 | · |
| O=C(Nc1cc(S(=O)(=O)N2CCOCC2)ccc1N1CCOCC1)c1cc(=O)[nH]c2ccccc12 | · | -1 | · | -18 | -7 | · |

High-throughput results: PubChem, Broad Institute
